Inhibition data for ten compounds are collected here from ChEMBL document CHEMBL4270552, “4-(Phenoxy) and 4-(benzyloxy)benzamides as potent and selective inhibitors of mono-ADP-ribosyltransferase PARP10/ARTD10” (Eur J Med Chem, 2018).

In general, inhibition refers to the relative decrease from the control value, in per cent. A lower inhibition goes with little suppression.

SMILES strings stand for the structures.

The assay concerns the target T1, Protein mono-ADP-ribosyltransferase PARP10 (Homo sapiens) (UniProt Q53GL7).
T1 sequence (whole entry): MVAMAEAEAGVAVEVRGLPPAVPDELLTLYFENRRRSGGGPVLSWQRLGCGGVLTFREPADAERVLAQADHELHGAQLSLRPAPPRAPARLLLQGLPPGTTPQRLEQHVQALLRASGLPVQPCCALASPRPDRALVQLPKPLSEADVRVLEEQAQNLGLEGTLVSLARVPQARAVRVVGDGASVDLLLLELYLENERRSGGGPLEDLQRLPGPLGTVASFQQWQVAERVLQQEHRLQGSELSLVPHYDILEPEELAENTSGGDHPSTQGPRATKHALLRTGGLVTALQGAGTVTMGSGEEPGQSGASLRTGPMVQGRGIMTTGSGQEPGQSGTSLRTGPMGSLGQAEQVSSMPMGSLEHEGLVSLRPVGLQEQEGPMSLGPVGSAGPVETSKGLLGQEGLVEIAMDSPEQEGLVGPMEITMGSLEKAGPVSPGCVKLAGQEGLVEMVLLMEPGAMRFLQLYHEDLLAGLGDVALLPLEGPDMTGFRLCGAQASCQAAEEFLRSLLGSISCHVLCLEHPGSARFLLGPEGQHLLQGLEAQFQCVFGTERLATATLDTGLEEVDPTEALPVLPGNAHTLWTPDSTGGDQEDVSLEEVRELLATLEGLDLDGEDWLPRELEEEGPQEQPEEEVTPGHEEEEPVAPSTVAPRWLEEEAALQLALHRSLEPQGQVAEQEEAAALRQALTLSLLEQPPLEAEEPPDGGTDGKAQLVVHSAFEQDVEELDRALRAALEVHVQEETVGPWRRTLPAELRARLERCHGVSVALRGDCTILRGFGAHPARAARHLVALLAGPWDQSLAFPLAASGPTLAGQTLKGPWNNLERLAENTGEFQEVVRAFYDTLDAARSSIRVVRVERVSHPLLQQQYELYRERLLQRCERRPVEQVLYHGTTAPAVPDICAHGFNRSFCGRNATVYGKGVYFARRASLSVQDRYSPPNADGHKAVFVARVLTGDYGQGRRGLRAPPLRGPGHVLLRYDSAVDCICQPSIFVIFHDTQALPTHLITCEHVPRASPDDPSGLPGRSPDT
Conditions: 10 uM.
Consider `CC(C)c1ccc(C(C)Oc2ccc(C(N)=O)cc2)cc1` (stereo not given), for which the inhibition came to 16%.

With `CP(=O)(c1ccc(C(N)=O)cc1)c1ccc(C(N)=O)cc1`, the inhibition is 0%.

`NC(=O)c1ccc(Nc2ccc(C(N)=O)cc2)cc1` came in with an inhibition of 0%.

As for `CN(c1ccc(C(N)=O)cc1)c1ccc(C(N)=O)cc1`, the inhibition turned out to be 26%.

Consider `NC(=O)c1ccc(C(=O)c2ccc([N+](=O)[O-])cc2)cc1`, for which the inhibition came out at 24%.

The compound `N#Cc1ccc(Sc2ccc(C(N)=O)cc2)cc1` yielded an inhibition of 16%.

As for `CCOc1ccc(OCc2ccc(C(N)=O)cc2)cc1`, the inhibition is 0%.

For `NC(=O)c1ccc(Oc2ccccn2)cc1`, the inhibition amounted to 49%.

Compound `NC(=O)c1ccc(Sc2ccc(C(N)=O)cc2)cc1` returned an inhibition of 30%.

Take `NC(=O)c1ccc(O)cc1`: the inhibition turned out to be 27%.
